Assay results as given in patent EP0127426A1, “Percutaneous pharmaceutical compositions for external use” (Takeda Chemical Industries, Ltd., priority 1983, dated 1984).

Test: Percutaneous absorption test in rats, blood concentration of clonidine by liquid chromatography
Settings: promoting agent in propylene glycol preparation of clonidine (Comparative Example 3)
Experimental: 3 mg of clonidine, an antihypertensive drug, was dissolved in a mixture of 20 mg of lauric acid, one of the percutaneous absorption promoting agents according to this invention, and 177 mg of propylene glycol to prepare a coating sample.
A percutaneous absorption test was carried out in male SD-JCL rats with an average body weight of 250 g. Under pentobarbital anesthesia, the abdomen of each rat was clipped of hairs with an electric clipper and the sample was coated on the denuded abdominal area (5 x 4 cm).
The collected venous blood was centrifuged and 0.2 ml of the plasma was extracted with 1 ml of 0.01 N-NaOH and 5 ml of chloroform. From a 4 ml portion of the chloroform layer, the chloroform was distilled off and the residue was dissolved by addition of 0.2ml of 0.05 M sodium acetate-acetonitrile-tetrahydrofuran (70:30:0.2, v/v). A 50 µl portion of the solution was applied to a liquid chromatograph to determine the concentration of clonidine. The µ-Bondapak Cl8 column was used for this liquid chromatography. The percutaneous absorption of clonidine was evaluated in terms of AUC6 (area under the blood concentration-time curve of clonidine during 0 to 6 hours) and its multiple over the [formula] of the preparation of Comparative Example 1 was calculated.

effectiveness of the percutaneous absorption promoting agent for clonidine: ineffective
SMILES: CCCCCCCCCCCCO [lauryl alcohol]
